Data reported in US20060100245A1, “Substituted biphenyl-4-carboxylic acid arylamide analogues” (Neurogen Corporation, priority 2002, published 2006).

The chains behind the UniProt entries cited, without tags or fusion partners.
UniProt Q8NER1, whole entry: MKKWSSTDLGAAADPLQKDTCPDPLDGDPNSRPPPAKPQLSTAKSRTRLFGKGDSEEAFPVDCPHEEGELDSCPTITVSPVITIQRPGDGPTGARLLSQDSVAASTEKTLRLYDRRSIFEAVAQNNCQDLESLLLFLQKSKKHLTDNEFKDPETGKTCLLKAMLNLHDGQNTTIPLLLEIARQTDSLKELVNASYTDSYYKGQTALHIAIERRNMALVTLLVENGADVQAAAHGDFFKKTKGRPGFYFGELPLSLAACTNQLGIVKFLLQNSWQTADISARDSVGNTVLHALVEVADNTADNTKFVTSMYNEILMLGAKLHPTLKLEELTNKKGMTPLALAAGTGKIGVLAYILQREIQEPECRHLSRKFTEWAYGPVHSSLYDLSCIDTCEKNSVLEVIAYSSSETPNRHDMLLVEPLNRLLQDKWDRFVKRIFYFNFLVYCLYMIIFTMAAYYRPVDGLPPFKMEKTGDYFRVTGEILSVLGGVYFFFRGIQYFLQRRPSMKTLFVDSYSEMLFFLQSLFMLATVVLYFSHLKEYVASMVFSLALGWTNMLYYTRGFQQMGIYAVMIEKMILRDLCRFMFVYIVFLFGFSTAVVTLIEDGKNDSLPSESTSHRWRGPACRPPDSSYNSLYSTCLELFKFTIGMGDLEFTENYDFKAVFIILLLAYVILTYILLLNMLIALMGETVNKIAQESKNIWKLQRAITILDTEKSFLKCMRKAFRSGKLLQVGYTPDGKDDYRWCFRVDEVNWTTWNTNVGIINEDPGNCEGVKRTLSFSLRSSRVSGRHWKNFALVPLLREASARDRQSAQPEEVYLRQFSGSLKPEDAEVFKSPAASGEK

Molecular target: T1, human capsaicin receptor (VR1) (Homo sapiens, UniProt Q8NER1)
T1 construct: transfected with the pBK-CMV expression construct encoding the full length human capsaicin receptor; expressed in transfected cells
Experiment: Capsaicin receptor binding assay ([3H]RTX competition)
Excerpt: This Example illustrates the preparation of VR1-transfected cells and membrane preparations for use in binding assays (Example 5) and functional assays (Example 6).
A cDNA encoding full length human capsaicin receptor (SEQ ID NO: 1, 2 or 3 of U.S. Pat. No. 6,482,611) was subcloned in the plasmid pBK-CMV (Stratagene, La Jolla, Calif.) for recombinant expression in mammalian cells.
Human embryonic kidney (HEK293) cells were transfected with the pBK-CMV expression construct encoding the full length human capsaicin receptor using standard methods. The transfected cells were selected for two weeks in media containing G418 ([…]) to obtain a pool of stably transfected cells. Independent clones were isolated from this pool by limiting dilution to obtain clonal stable cell lines for use in subsequent experiments.
For radioligand binding experiments, cells were seeded in T175 cell culture flasks in media without antibiotics and grown to approximately 90% confluency. The flasks were then washed with PBS and harvested in PBS containing 5 mM EDTA. The cells were pelleted by gentle centrifugation and stored at −80° C. until assayed.
Previously frozen cells were disrupted with the aid of a tissue homogenizer in ice-cold HEPES homogenization buffer (5mM KCl 5, 5.8 mM NaCl, 0.75 mM CaCl2, 2 mM MgCl2, 320 mM sucrose, and 10 mM HEPES pH 7.4). […]

Cc1cccnc1-c1ccc(C(=O)Nc2ccc(C(C)(C)C)cc2)cc1 [Compound 414, N-(4-tert-Butyl-phenyl)-4-(3-methyl-pyridin-2-yl)-benzamide]
Ki: < 1 µM
